According to ChEMBL document CHEMBL3526020, “Significance of peptide transporter 1 in the intestinal permeability of valacyclovir in wild-type and PepT1 knockout mice” (Drug Metab Dispos, 2013):

System: Homo sapiens
Experiment: Oral bioavailability in human assessed as acyclovir level
Assay type: ADME, organism-based
Settings: in vivo

SMILES: CC(C)[C@H](N)C(=O)OCCOCn1cnc2c(=O)[nH]c(N)nc21.Cl [VALACYCLOVIR HYDROCHLORIDE]
- F: 54%
